This is an account of results in ChEMBL document CHEMBL3621108, “Discovery, Development, and SAR of Aminothiazoles as LIMK Inhibitors with Cellular Anti-Invasive Properties” (J Med Chem, 2015).

The test system of this assay is CASK, calcium/calmodulin-dependent serine protein kinase (Homo sapiens). As to conditions: 10 uM.

For the compound `COc1ccc(-c2cnccc2-c2cnc(NC(=O)C(C)C)s2)c(C(F)(F)F)c1`, the inhibition is above 90%.

A word on the inhibition: it is the percentage by which the read-out fell short of the control.
